The values below are quoted from earlier work in patent publication US20250283018A1, “TOILET RIM BLOCKS WITH SCENT CHANGE” (SYMRISE AG, priority 2021, published 2025).

The conditions of the data set: Table 1, components of MARINA.

In the case of `CC(=O)/C=C/C1=C(C)CCCC1(C)C` [BETA IONONE], the lipophilicity (logP) was 4.42.
